IC50 data for seven molecules are collected here from ChEMBL document CHEMBL1909493, “Synthesis and biological evaluation of novel analogues of the pan class I phosphatidylinositol 3-kinase (PI3K) inhibitor 2-(difluoromethyl)-1-[4,6-di(4-morpholinyl)-1,3,5-triazin-2-yl]-1H-benzimidazole (ZSTK474)” (J Med Chem, 2011).

The chains behind the UniProt entries cited, without tags or fusion partners.
UniProt P42337, whole entry: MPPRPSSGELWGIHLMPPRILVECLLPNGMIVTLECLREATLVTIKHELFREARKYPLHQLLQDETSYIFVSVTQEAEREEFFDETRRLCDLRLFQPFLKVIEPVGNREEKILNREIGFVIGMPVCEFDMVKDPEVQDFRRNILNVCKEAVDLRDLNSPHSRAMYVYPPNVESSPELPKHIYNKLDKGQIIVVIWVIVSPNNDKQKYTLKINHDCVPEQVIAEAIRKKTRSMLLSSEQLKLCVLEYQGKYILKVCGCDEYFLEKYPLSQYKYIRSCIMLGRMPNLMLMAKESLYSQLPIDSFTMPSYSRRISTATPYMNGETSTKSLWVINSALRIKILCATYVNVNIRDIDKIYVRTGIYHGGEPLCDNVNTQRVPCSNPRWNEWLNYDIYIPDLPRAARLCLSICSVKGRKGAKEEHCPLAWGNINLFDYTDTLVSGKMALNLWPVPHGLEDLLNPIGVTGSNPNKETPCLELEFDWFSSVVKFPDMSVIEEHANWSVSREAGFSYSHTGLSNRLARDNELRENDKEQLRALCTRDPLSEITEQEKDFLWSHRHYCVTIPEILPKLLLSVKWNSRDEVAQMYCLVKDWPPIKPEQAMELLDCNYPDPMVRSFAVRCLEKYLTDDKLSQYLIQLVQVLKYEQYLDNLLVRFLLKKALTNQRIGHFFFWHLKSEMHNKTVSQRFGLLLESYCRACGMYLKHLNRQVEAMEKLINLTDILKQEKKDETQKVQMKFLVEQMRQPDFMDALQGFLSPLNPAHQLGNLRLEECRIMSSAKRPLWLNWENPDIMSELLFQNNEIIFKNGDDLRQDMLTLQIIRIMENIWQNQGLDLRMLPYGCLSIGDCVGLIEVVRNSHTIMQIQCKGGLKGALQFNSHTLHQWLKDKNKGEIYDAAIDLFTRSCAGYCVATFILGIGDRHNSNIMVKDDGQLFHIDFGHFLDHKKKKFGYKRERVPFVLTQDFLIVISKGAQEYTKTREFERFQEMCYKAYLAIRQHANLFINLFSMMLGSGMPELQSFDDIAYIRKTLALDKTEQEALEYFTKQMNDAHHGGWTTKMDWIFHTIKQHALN

What is called IC50 is the concentration that inhibits the measured activity by half.

The target of assay [1] is Phosphatidylinositol 4,5-bisphosphate 3-kinase catalytic subunit alpha isoform (Mus musculus, UniProt P42337). Briefly: Inhibition of mouse recombinant PI3K p110alpha expressed in Sf21 insect cells using phosphatidylinositol as substrate after 1 hr by phosphoimaging.
The nature of assay [2]: cells. To be noted: Homo sapiens, NZOV9.
The nature of assay [3]: cells. To be noted: Homo sapiens, NZB5.
Assay [4] is described as follows: cells. To be noted: Homo sapiens, HCT-116.
The target in assay [5] is T1, Phosphatidylinositol 4,5-bisphosphate 3-kinase catalytic subunit delta isoform (Homo sapiens, UniProt O00329).
T1 sequence (O00329 whole entry): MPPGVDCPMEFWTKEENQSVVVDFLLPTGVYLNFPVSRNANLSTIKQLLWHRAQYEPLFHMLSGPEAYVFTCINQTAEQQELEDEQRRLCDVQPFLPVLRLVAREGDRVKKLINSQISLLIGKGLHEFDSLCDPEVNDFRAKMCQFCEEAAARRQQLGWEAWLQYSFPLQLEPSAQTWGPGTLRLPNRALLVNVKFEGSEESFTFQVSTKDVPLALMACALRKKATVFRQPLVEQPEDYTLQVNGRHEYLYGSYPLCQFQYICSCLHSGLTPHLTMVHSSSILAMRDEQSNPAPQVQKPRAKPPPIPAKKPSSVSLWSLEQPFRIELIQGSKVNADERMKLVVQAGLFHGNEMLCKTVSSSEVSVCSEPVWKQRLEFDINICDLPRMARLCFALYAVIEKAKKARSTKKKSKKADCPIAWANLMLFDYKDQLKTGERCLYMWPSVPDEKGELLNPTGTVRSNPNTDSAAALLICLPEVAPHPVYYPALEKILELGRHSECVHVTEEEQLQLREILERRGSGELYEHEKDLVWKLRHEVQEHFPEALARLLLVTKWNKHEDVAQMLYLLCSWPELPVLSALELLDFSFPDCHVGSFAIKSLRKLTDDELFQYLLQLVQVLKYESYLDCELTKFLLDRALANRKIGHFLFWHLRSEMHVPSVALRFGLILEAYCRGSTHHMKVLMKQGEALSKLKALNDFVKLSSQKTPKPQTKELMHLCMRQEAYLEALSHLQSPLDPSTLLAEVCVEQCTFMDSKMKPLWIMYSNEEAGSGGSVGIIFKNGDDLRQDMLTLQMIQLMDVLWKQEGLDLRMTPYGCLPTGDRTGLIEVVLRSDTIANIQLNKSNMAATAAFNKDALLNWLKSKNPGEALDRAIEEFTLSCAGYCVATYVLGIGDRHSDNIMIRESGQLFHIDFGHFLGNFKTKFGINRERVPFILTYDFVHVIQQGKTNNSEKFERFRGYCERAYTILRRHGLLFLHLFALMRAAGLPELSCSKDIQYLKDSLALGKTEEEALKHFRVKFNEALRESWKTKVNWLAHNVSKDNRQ
The assay is described as follows: Inhibition of human His-tagged PI3K p110delta after 2 hrs by HTRF assay. A general note: In TR-FRET formats the signal depends on donor and acceptor labels being close together.

A short description of assay [6]: Inhibition of bovine recombinant PI3K p110delta expressed in Sf21 insect cells using phosphatidylinositol as substrate after 1 hr by phosphoimaging. Set-up: species or system Bos taurus.

Regarding `CCCCOc1cccc2c1nc(C(F)F)n2-c1nc(N2CCOCC2)nc(N2CCOCC2)n1`, the IC50 in assay [1] stood at 28 nM.

`NC(=O)c1cccc2c1nc(C(F)F)n2-c1nc(N2CCOCC2)nc(N2CCOCC2)n1`: the half-inhibitory concentration (IC50) in “cells [2]” turned out to be 110 nM.

In the case of `COc1c(O)ccc2c1nc(C(F)F)n2-c1nc(N2CCOCC2)nc(N2CCOCC2)n1`, the results for the IC50 (in assay [1]; in “cells [3]”) were 32 nM and 9 nM, respectively.

Consider `COc1cc(N)cc2c1nc(C(F)F)n2-c1nc(N2CCOCC2)nc(N2CCOCC2)n1`, for which the results for the IC50 (in the assay “cells [4]”; in assay [5]; in assay [6]) were 17 nM, 1.7 nM and 0.38 nM, respectively.

As for `Oc1cccc2c1nc(C(F)F)n2-c1nc(N2CCOCC2)cc(N2CCOCC2)n1`, half-maximal inhibition in “cells [2]” (IC50) required 110 nM.

For the molecule `FC(F)c1nc2ccccc2n1-c1cc(N2CCOCC2)nc(N2CCOCC2)n1`, half-maximal inhibition in the assay “cells [3]” (IC50) was put at 420 nM.

Consider `COc1cccc2c1nc(C(F)F)n2-c1cc(N2CCOCC2)nc(N2CCOCC2)n1`, for which the IC50 in the assay “cells [2]” turned out to be 110 nM; in the assay “cells [3]” it was 430 nM.
